# Measured values: PubChem BioAssay AID588676 (Johns Hopkins Ion Channel Center, 2011)
# The chains behind the UniProt entries cited, without tags or fusion partners.
# UniProt Q96LB2, whole entry: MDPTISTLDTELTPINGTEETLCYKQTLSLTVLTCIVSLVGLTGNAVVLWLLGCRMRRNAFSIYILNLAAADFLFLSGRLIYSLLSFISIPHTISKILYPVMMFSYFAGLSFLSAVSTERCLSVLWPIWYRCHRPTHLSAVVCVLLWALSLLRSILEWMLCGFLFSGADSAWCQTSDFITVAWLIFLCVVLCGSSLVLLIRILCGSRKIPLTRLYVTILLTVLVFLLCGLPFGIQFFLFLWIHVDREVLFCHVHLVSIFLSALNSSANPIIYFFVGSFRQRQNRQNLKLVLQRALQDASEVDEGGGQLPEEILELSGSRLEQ
# The entries are a selection whose mix differs from that of the whole data set. Calls of active or inactive are those of the source.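 How the source made its calls: active means calcium-response B-score plate-corrected more than 3 library SD below zero, starting fluorescence within 5 deviations, no agonist response on first addition; inactive means the rest.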
# Target: Mas-related G-protein coupled receptor member X1 (Homo sapiens) (UniProt Q96LB2)
# Assay: antagonists of human MrgX1 receptor, primary screen, HEK293 cells, Fluo-4 calcium flux (AID 588676)
# Details: Fluo-4, BAM8-22 antagonism, at 10 µM
row,Structure (SMILES),outcome
1,c1ccc(CN2CCC(Nc3ccccc3)CC2)cc1,inactive
2,CCCN1CCC(Nc2cc(OC)cc(OC)c2)CC1,inactive
3,CN(C)C1(CNC(=O)c2cccc(C#N)c2)CCCCC1,inactive
4,CC(C)(C)OC(=O)N1CCC(N(C(=O)c2ccccc2)c2ccc(Cl)cc2)CC1,inactive
5,N#Cc1ccc(C(=O)NCC2(N3CCCCC3)CCCCC2)cc1,inactive
6,N/C(=N\O)c1c(N)no[n+]1[O-],inactive
7,CCOC(=O)N1CCC(Nc2ccc(C)cc2)CC1,inactive
8,O=C(OC1CN2CCC1CC2)C1c2ccccc2C=Cc2ccccc21 (centres undefined),inactive
9,CCc1cc(C(=O)NCC2(N3CCCCC3)CCCCC2)sc1C,inactive
10,COc1ccc(C(=O)NCC2(N3CCOCC3)CCCCC2)cc1OC,inactive
11,CCC(CO)(C(=O)OC1CN2CCC1CC2)c1ccccc1 (centres undefined),inactive
12,COc1cccc(C(=O)N(c2cc(C)cc(C)c2)C2CCN(C(=O)OC(C)(C)C)CC2)c1,inactive
13,COc1cc(OC)cc(C(=O)NCC2(N3CCOCC3)CCCCC2)c1,inactive
14,CCCOc1ccc(C)cc1CN(CCCl)CCCl,inactive
15,CN1CCC(Nc2ccc(Cl)cc2)CC1,inactive
16,CCOc1ncccc1C(=O)NCC1(N2CCOCC2)CCCCC1,inactive
17,CN1CCC(Nc2ccc(F)c(Cl)c2)CC1,inactive
18,CCCOc1ccc(C(=O)NCC2(N(C)C)CCCCC2)cc1,inactive
19,CC(C)(C)OC(=O)N1CCC(Nc2ccccc2)CC1,inactive
20,O=C(O)C1(Nc2ccccc2)CCN(Cc2ccccc2)CC1,inactive

row,Structure (SMILES),outcome
1,CCN1CCC(Nc2cccc(F)c2)CC1,inactive
2,CN(C)c1ccc(C(=O)NCC2(N3CCCCC3)CCCCC2)cc1,inactive
3,COc1cc(OC)cc(C(=O)NCC2(N3CCCCC3)CCCCC2)c1,inactive
4,Cc1ccc(C(=O)NCC2(N3CCCCC3)CCCCC2)o1,inactive
5,Fc1ccccc1NC1CCN(Cc2ccccc2)CC1,inactive
6,COc1cc(C(=O)NCC2(N(C)C)CCCCC2)ccc1OC(F)F,inactive
7,CCOC(=O)N1CCC(Nc2cccc(C)c2)CC1,inactive
8,Cc1ccc(OCC(C)C)c(CN(CCCl)CCCl)c1,inactive
9,CCOc1ccc(C)cc1CN(CCCl)CCCl,inactive
10,O=C(NCC1(N2CCCCC2)CCCCC1)c1ccc(F)cc1,inactive
11,CCOC(=O)N1CCC(Nc2ccc(F)cc2)CC1,inactive
12,COc1ccc(NC2CCN(CCc3ccccc3)CC2)c(OC)c1,inactive
13,O=C(NCC1(N2CCOCC2)CCCCC1)c1cc2ccccc2o1,inactive
14,O=C(NCC1(N2CCCCC2)CCCCC1)c1ccc(Cl)nc1,inactive
15,Cc1cc(C)cc(N(C(=O)c2ccccc2)C2CCN(C(=O)OC(C)(C)C)CC2)c1,inactive
16,CCOC(=O)N1CCC(Nc2ccc(OC)cc2)CC1,inactive
17,O=C(OC1CN2CCC1CC2)C1c2ccccc2Oc2ccccc21 (centres undefined),inactive
18,N#CC1(Nc2ccccc2)CCN(Cc2ccccc2)CC1,inactive
19,O=C(NCC1(N2CCCCC2)CCCCC1)c1ccc(=O)[nH]c1,inactive
20,O=C(NCC1(N2CCCCC2)CCCCC1)c1cccs1,inactive

row,Structure (SMILES),outcome
1,COc1ccc(C(=O)NCC2(N3CCCCC3)CCCCC2)cc1,inactive
2,CC(C)(C)OC(=O)N1CCC(N(C(=O)c2ccccc2)c2ccc(F)cc2)CC1,inactive
3,COc1ccc(C(=O)NCC2(N3CCCCC3)CCCCC2)c(OC)c1OC,inactive
4,CSc1ccccc1C(=O)NCC1(N2CCCCC2)CCCCC1,inactive
5,CN1CCC(Nc2cccc(F)c2)CC1,inactive
6,CCCOc1ccc(C(=O)NCC2(N(C)C)CCCCC2)cc1OC,inactive
7,COc1ccc(CN(CCCl)CCCl)cc1Cl,inactive
8,CN(C)c1cccc(C(=O)NCC2(N3CCCCC3)CCCCC2)c1,inactive
9,CC(C)c1ccc(NC2CCN(C(=O)OC(C)(C)C)CC2)cc1,inactive
10,COc1cc(OC)c(C(=O)NCC2(N(C)C)CCCCC2)cc1OC,inactive
11,O=C(NCC1(N2CCCCC2)CCCCC1)c1cccc(C(F)(F)F)c1,inactive
12,COc1ccc(NC2CCN(C(=O)OC(C)(C)C)CC2)cc1,inactive
13,CN1CCN(CCOC(=O)C(O)(c2ccccc2)c2ccccc2)CC1,inactive
14,O=C(NCC1(N2CCOCC2)CCCCC1)c1cc(=O)[nH]c2ccccc12,inactive
15,COc1cc(C(=O)NCC2(N3CCCCC3)CCCCC2)ccc1OC(F)F,inactive
16,O=C(NCC1(N2CCCCC2)CCCCC1)c1ccc(OC(F)F)cc1,inactive
17,O=C(NCC1(N2CCCCC2)CCCCC1)c1cccc([N+](=O)[O-])c1,inactive
18,CCN1CCC(Nc2ccc(Cl)cc2)CC1,inactive
19,N#CC1(Nc2ccccc2)CCN(CCc2ccccc2)CC1,inactive
